Settings: cation:anion 1:2

In the case of “choline and 4-phenolsulfonic acid [CASA]”, the “physical state at room temperature” value is reported as “solidified or formed a gel”.

From US20240016735A1, “IONIC LIQUIDS FOR DRUG DELIVERY” (PRESIDENT AND FELLOWS OF HARVARD COLLEGE, priority 2019, published 2024)
